A selection: hits, their analogues and other compounds. The true share with any hit is near 0.51%.
Rango-impB inh – inhibitors of Rango-importin beta complex formation | Q14974 | Potency, µM (highest dose often 92.2 µM) | AID 540263 | Rango CFP/YFP FRET sensor + importin beta, 45 min | 340,000 tested, 0.031% active; calls by dose curve; also: nearly all actives have a fitted effect of over 15% in size
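FRET biosensor (snurportin 1 IBB flanked by EYFP and cerulean), 50 nM, with compound 5 min, then 0.125 microM importin beta in PBS, 1 mM DTT, 0.02% Tween-20, 0.1% BSA. CFP/YFP ratio read after 45 min at room temperature; pre-read flags interference.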
a7 integrin act – activators of alpha7 integrin expression for muscular dystrophy. Potency, µM (series often up to 38.3 µM), most hits filed as activators. 350,000 tested, 0.064% active. alpha7betagal myoblasts, beta-gal FDG fluorescence, 48 h; also: nearly all actives have a fitted effect of over 60% in size
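Alpha7betagal+/- myoblasts (passage 13) were plated 16-24 hr, then exposed to compounds (1:260 dilution of DMSO stock) for 48 hours at 37C. After MPER lysis, β-galactosidase reporter activity was read as FDG fluorescence (ex 480/em 540) after 30 minutes.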
Rango release inh – inhibition of RanGTP-driven Rango-importin beta dissociation | O95149+P62826 | Biochemical FRET Rango-importin beta, RanGTP-induced dissociation | Potency, µM (series often up to 46.1 µM) | 340,000 tested, 0.071% active | AID 540253; calls by dose curve; also: nearly all actives have a fitted effect of over 45% in size
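Recombinant Rango FRET biosensor (EYFP–snurportin 1 IBB–cerulean CFP10) at 0.1 uM premixed with 0.25 uM importin beta in PBS, 1 mM DTT, 0.02% Tween-20, 0.1% BSA. Compound added 5 min; RanGTP-RCC1 (0.6 uM Ran, 2 mM GTP, 0.2 uM RCC1) then triggers release, read at 45 min.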
CCT modulator – cytosolic chaperonin activity modulation; activity change, % (no concentration beside the values), hits read low; 360,000 tested, 0.3% active; purified chaperonin ATPase assay, HTRF ADP detection, 30 min; in the data active = activity change below about -30%
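We incubate TRiC, 40 or 20 nM final, with library compounds at 76 uM and 10 uM ATP for 30 min at 37 °C. ADP formed is detected with Transcreener HTRF reagents after 30 min at room temperature.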
MmCpn inh – blocks the Methanococcus maripaludis chaperonin Mm-Cpn; purified Mm-Cpn ATPase, ADP Transcreener TR-FRET; Potency, µM (series often up to 76.9 µM), actives largely listed as inhibitors; 330,000 tested, 0.031% active; AID 504842; also: nearly all actives have a fitted effect of over 80% in size
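25 nM Mm-CPN + cpd, 10 min 37°C; + 10 uM ATP, 30 min 37°C; buffer 30 mM Tris pH 7.4, 100 mM KCl, 5 mM MgCl2, 1 mM DTT; Transcreener ADP HTRF detection 30 min RT.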
Each line names hits and unclear results; the compound was inactive in the other large screens; [ ] = remark or other dose. Unless noted, calls follow the shape of the dose curve; as a rule, active = well fitted curve in the direction sought with a large enough effect; inconclusive = small, poorly fitted or top-dose-only effect, or another doubt; inactive = no such curve, though single readings can be large; an effect the other way counts as inactive or inconclusive.

CN(c1ccc(F)cc1)S(=O)(=O)c1ccc(Cl)c(C(=O)OCC(=O)NCc2ccco2)c1	CCT modulator -31
Cc1ccc(C(=Cc2ccc([N+](=O)[O-])cc2)C(=O)O)cc1	none (no result: Rango-impB inh, Rango release inh, MmCpn inh)
Cc1ccc(S(=O)(=O)n2cc(-c3ccccc3)c3ccccc32)cc1	CCT modulator -31
COC(=O)C1=NN(c2ccccc2OC)C2C(=O)N(c3ccccc3OC)C(=O)C12 (stereo not drawn)	Rango-impB inh inconclusive
COC(=O)C1=NN(c2cccc3ccccc23)C2C(=O)N(c3ccccc3OC)C(=O)C12 (stereo not drawn)	Rango-impB inh inconclusive, Rango release inh 12µM
CCc1nnc(N/N=C/c2c(Cl)cccc2Cl)n1N	none
CCc1nnc(N/N=C/c2cccs2)n1N	a7 integrin act inconclusive, CCT modulator -43
Cc1ccc2nc(-c3cccnc3SCC(=O)N3c4ccccc4CC3C)[nH]c2c1 (stereo not drawn)	MmCpn inh 50µM
Cc1ccc2nc(-c3ccc(SCC(=O)N4CCc5ccccc54)nc3)[nH]c2c1	CCT modulator -44
Cc1ccc(S(=O)(=O)Nc2ccccc2C=Nc2cccc(C)c2C)cc1	Rango-impB inh inconclusive, Rango release inh 7.3µM
Cc1ccc(S(=O)(=O)Nc2ccccc2/C=N/c2nc3ccccc3n2C)cc1	Rango-impB inh inconclusive, Rango release inh 8.2µM[inhibitor]
Cc1ccc(S(=O)(=O)Nc2ccccc2N=Cc2c(F)c(F)c(F)c(F)c2F)cc1	Rango-impB inh inconclusive (no result: MmCpn inh)
OCCC1CN(Cc2cc(F)ccc2-n2cccn2)CCN1C1CCCC1 (stereo not drawn)	CCT modulator -30
CCCCN1/C(=C/c2ccc3ccccc3[n+]2CC)Sc2ccccc21	Rango-impB inh 46µM, a7 integrin act inconclusive
CCN1/C(=C/c2ccc3cc(C)ccc3[n+]2CC)Sc2cc(C)ccc21	Rango-impB inh inconclusive, Rango release inh inconclusive
CSCCC(NC(=O)/C(=C/c1ccco1)NC(=O)c1ccco1)C(=O)O (stereo not drawn)	CCT modulator -38 (no result: MmCpn inh)
COC(=O)[C@@H](Cc1ccccc1)NC(=O)/C=C/[C@H]1O[C@@H](n2cnc3c(NC(=O)c4ccccc4)ncnc32)[C@H](O)[C@@H]1O	none (no result: Rango-impB inh, a7 integrin act, Rango release inh, MmCpn inh)
COCCNC(=O)c1cccc2c1C(=O)c1ccc(N3CCOCC3)cc1S2(=O)=O	Rango-impB inh 46µM
O=C(Nc1cccc(C(F)(F)F)c1)c1ccc2sc([C@@H]3O[C@H](CO)[C@H](O)[C@H](O)[C@H]3O)nc2c1	none (no result: Rango-impB inh, a7 integrin act, Rango release inh, MmCpn inh)
CN(C)CCOc1ccc(C(C)(C)c2ccccc2)cc1	none
CC(C)(c1ccccc1)c1ccc(OCC2CO2)cc1 (stereo not drawn)	CCT modulator -30
COC(=O)C1=NNC2(C)C(=O)N(c3ccc(C)cc3)C(=O)C12 (stereo not drawn)	a7 integrin act 10µM
COc1ccc(C)cc1S(=O)(=O)N(CC(=O)NC1CCCC1)c1ccc(F)cc1	none
COc1ccc(C)cc1S(=O)(=O)N(CC(=O)O)c1ccc(F)cc1	CCT modulator -33 (no result: MmCpn inh)
COc1ccc2[nH]c(C(=O)Nc3ncc(C)cc3Br)cc2c1	Rango-impB inh inconclusive
COc1ccc2[nH]c(C(=O)Nc3ccc(F)cc3Br)cc2c1	CCT modulator -50, MmCpn inh inconclusive
CCCc1nnc(SCC(=O)O)n1/N=C/c1ccc2c(c1)OCO2	CCT modulator -63
O=C(NCCc1c[nH]c2ccccc12)C(=O)c1c[nH]c2ccccc12	CCT modulator -87
Nc1cc(C(F)(F)F)ccc1NCCc1ccccn1	CCT modulator -107
Cc1ccc(N(CC(=O)Nc2ccc(-c3nc4ccc(C)cc4s3)cc2)S(C)(=O)=O)cc1	CCT modulator -40, MmCpn inh inconclusive
Cc1ccc(C)c(N(CC(=O)Nc2ccc(-c3nc4ccc(C)cc4s3)cc2)S(C)(=O)=O)c1	Rango-impB inh inconclusive
CCOC(=O)C1CCCN(C(=O)CNS(=O)(=O)c2ccc(Br)s2)C1 (stereo not drawn)	a7 integrin act 2µM
CCOc1ccc(NC(=O)CN2C(=O)NC(CCSC)C2=O)cc1 (stereo not drawn)	a7 integrin act 10µM
Cc1ccc(-c2nc3c(c(SCC(=O)Nc4cccc(C(=O)O)c4)n2)Cc2cccc(C)c2O3)cc1	none (no result: Rango-impB inh, a7 integrin act, Rango release inh, CCT modulator)
Cc1cc(N2CCOCC2)nc2cc(O)ccc12	Rango-impB inh inconclusive, Rango release inh 16µM
COc1cc(/C=C/CN2CCN(Cc3ccc(C)o3)C(CCO)C2)ccc1O (stereo not drawn)	a7 integrin act 14µM

Screens deposited in PubChem BioAssay by National Center for Advancing Translational Sciences (NCATS).
